Assay results taken from paper PMC9394474 (Viruses, 2022).

Key:
human hisTRIM7-PRYSPRY = human hisTRIM7-PRYSPRY (Homo sapiens, UniProt Q9C029); test: ITC binding to human TRIM7 PRYSPRY (wild type); conditions: ITC
[1] = target: mTrim7-PRYPSRY (Mouse TRIM7); test: ITC binding to mouse TRIM7 PRYSPRY; conditions: 15 °C, 50 mM phosphate pH 6.5, 1 mM DTT, TRIM7 500 µM, ligand 100 µM
hisMBP-TRIM7-CC-PRYSPRY = target: T1, hisMBP-TRIM7-CC-PRYSPRY (Homo sapiens, UniProt Q9C029); test: ITC binding to dimeric MBP-TRIM7-CC-PRYSPRY; conditions: 25 °C
T1 construct: made in house; host or cells: E. coli C41

[2] = 15 °C, 50 mM phosphate pH 6.5, 1 mM DTT

B1: rbGYG1: recombinant full-length rabbit glycogenin-1 with N-terminal hexahistidine tag (protein)
chain: MTDQAFVTLTTNDAYAKGALVLGSSLKQHRTSRRLAVLTTPQVSDTMRKALEIVFDEVITVDILDSGDSAHLTLMKRPELGVTLTKLHCWSLTQYSKCVFMDADTLVLANIDDLFEREELSAAPDPGWPDCFNSGVFVYQPSVETYNQLLHVASEQGSFDGGDQGLLNTFFNSWATTDIRKHLPFIYNLSSISIYSYLPAFKAFGANAKVVHFLGQTKPWNYTYDTKTKSVRSEGHDPTMTHPQFLNVWWDIFTTSVVPLLQQFGLVQDTCSYQHVEDVSGAVSHLSLGETPATTQPFVSSEERKERWEQGQADYMGADSFDNIKKKLDTYLQ
**Q.** What does the source list for B1?
**A.** DH (human hisTRIM7-PRYSPRY; [2]): -7.271 ± 0.13 kcal/mol; N (stoichiometry) (human hisTRIM7-PRYSPRY; [2]): 1.07±0.014

B2: mGYG1: recombinant full-length mouse glycogenin-1 (protein)
chain: MTDQAFVTLTTNDAYAKGALVLGSSLKQHRTTRRMVVLTSPQVSDSMRKVLETVFDDVIMVDVLDSGDSAHLTLMKRPELGITLTKLHCWSLTQYSKCVFMDADTLVLSNIDDLFEREELSAAPDPGWPDCFNSGVFVYQPSIETYNQLLHLASEQGSFDGGDQGLLNTYFSGWATTDITKHLPFVYNLSSISIYSYLPAFKAFGKNAKVVHFLGRTKPWNYTYNPQTKSVNCDSQDPTVSHPEFLNLWWDTFTTNVLPLLQHHGLVKDASSYLMMEHVSGALSDLSFGEAPAAPQPSMSSEERKERWEQGQADYMGADSFDNIKRKLDTYLQ
**Q.** How did the Kd [1] turn out when B2 was run?
**A.** 1.04 µM

B3: hGYG1-GN1: hexahistidine-tagged GYG1 construct comprising the full-length human GN1 isoform of GYG1 (protein)
chain: MTDQAFVTLTTNDAYAKGALVLGSSLKQHRTTRRLVVLATPQVSDSMRKVLETVFDEVIMVDVLDSGDSAHLTLMKRPELGVTLTKLHCWSLTQYSKCVFMDADTLVLANIDDLFDREELSAAPDPGWPDCFNSGVFVYQPSVETYNQLLHLASEQGSFDGGDQGILNTFFSSWATTDIRKHLPFIYNLSSISIYSYLPAFKVFGASAKVVHFLGRVKPWNYTYDPKTKSVKSEAHDPNMTHPEFLILWWNIFTTNVLPLLQQFGLVKDTCSYVNVEDVSGAISHLSLGEIPAMAQPFVSSEERKERWEQGQADYMGADSFDNIKRKLDTYLQ
**Q.** Which DH (hisMBP-TRIM7-CC-PRYSPRY) does the source give for B3 here?
**A.** -23.8 ± 0.991 kcal/mol

**Q.** What about the “N (stoichiometry)” value (hisMBP-TRIM7-CC-PRYSPRY; dimer concentrations used in the analysis for GYG1 protein) of the same molecule?
**A.** 0.8 ± 0.02

**Q.** What about the DH (human hisTRIM7-PRYSPRY; 25 °C, TRIM7 20 µM) of the same molecule?
**A.** -27 ± 3.3 kcal/mol

**Q.** And the “N (stoichiometry)” value (human hisTRIM7-PRYSPRY; 25 °C, for hGYG1-GN1 (**) concentration of GYG1 dimer used in the analysis)?
**A.** 0.42±0.03

**Q.** And the Kd (human hisTRIM7-PRYSPRY; one-site model, 25 °C, 150 mM NaCl, 50 mM Tris pH 8, 1 mM DTT, 0-1% DMSO, TRIM7 20 µM, ligand 400 µM (Ac-LQ, Ac-LLQ 800 µM; LQ 2000 µM), NB = no binding)?
**A.** 2.16 µM
